Source: PubChem BioAssay AID1554 (Broad Institute, 2009)
The list shows a part of the results, in another mix than the full data. Some salts and complexes are drawn in separate pieces, as the source files them; their charges need not balance. Calls of active or inactive are those of the source. Cut-off read from the data, not from the text of the source: active = inhibition above about 50%; inconclusive = no clear call, values can overlap the other calls; inactive = below that.

Assay: PubChem AID 1554
Details: BJeLR (HRASV12) viability, CellTiter-Glo ATP luminescence, 48 h; active compounds read high; concentration not given here

Row | Structure (SMILES) | inhibition
1 | CN(C)C(=O)Oc1noc2ccccc12 | inactive: -1.66%
2 | CCCCCOc1ccc(NP(C)(=O)Oc2ccc(Cl)cc2Cl)cc1 (configuration not stated) | inactive: 0.756%
3 | O=[N+]([O-])c1cc([N+](=O)[O-])c(OC2CCCCC2O)c([N+](=O)[O-])c1 (configuration not stated) | inactive: -11.3%
4 | Cc1ccccc1OP(=O)(Nc1ccccn1)Oc1ccccc1C | inactive: -2.4%
5 | Cc1ccc(OP(=O)(Nc2ccccn2)Oc2ccc(C)cc2)cc1 | inactive: -1.99%
6 | CC(=O)NC(SC(=S)N(CC(C)C)CC(C)C)C(Cl)(Cl)Cl (configuration not stated) | inactive: 0.404%
7 | COC(=O)c1cc2c(s1)N=C(c1ccccc1)N(C)P2(=O)N1CCOCC1 (configuration not stated) | inactive: -13%
8 | CCC(=O)N1C2C3N(C(=O)CC)C1C1N(C(=O)CC)C(C(N1C(=O)CC)N3C(=O)CC)N2C(=O)CC | inactive: 1.85%
9 | CCN(CC)CCCOC(=O)C(O)(c1ccccc1)C1CCCCC1 (configuration not stated) | inactive: -6.96%
10 | O=C(OC1CN2CCC1CC2)c1ccccc1 (configuration not stated) | inactive: -8.07%
11 | CCOC(=O)c1ccc(NP(C)(=O)Oc2ccc(F)cc2)cc1 (configuration not stated) | inactive: 14.1%
12 | COc1ccc(OP(C)(=O)Nc2ccc(SC(F)(F)F)cc2)cc1 (configuration not stated) | inactive: 2.12%
13 | O=C(NC1CCS(=O)(=O)C1)NP(=S)(Oc1ccccc1)Oc1ccccc1 (configuration not stated) | inactive: 0.578%
14 | CCNC(=S)/N=C(\N)N[N+](=O)[O-] | inactive: -1.45%
15 | CCOC(=O)NC(Sc1ccccc1)C(Cl)(Cl)Cl (configuration not stated) | inactive: 2.68%
16 | Cc1ccc(NP(=O)(Oc2cccc(C)c2)Oc2cccc(C)c2)nc1 | inactive: -1.1%
17 | c1ccc(-c2nn[nH]n2)c(-c2nn[nH]n2)c1 | inactive: 1.07%
18 | CC(=O)Nc1ccc(Oc2c([N+](=O)[O-])cc([N+](=O)[O-])cc2[N+](=O)[O-])cc1 | inactive: -6.82%
19 | COc1ccc2c(c1O)-c1c(O)c(OC)cc3c1[C@H](C2)[N+](C)(C)CC3.O=[N+]([O-])c1cc([N+](=O)[O-])c([O-])c([N+](=O)[O-])c1[O-] | inactive: -3.82%
20 | CC(=O)Nc1ccc([As](=O)(O)O)c(O)c1 | inactive: -3.46%
21 | O=C(OC1CN2CCC1CC2)c1ccc([N+](=O)[O-])cc1 (configuration not stated) | inactive: 3.06%

Row | Structure (SMILES) | inhibition
22 | CC(=O)c1ccc(N2CC2c2ccncc2)cc1 (configuration not stated) | inactive: 3.57%
23 | C[C@@H]1C=CCP(=O)(Oc2ccccc2)O1 (some centres not stated) | inactive: 1.78%
24 | C[C@H]1OP(=O)(Oc2ccccc2)C[C@@H]2O[C@@H]21 (some centres not stated) | inactive: -2.09%
25 | O=C(OCCN1CCN(CCOCc2ccccc2)CC1)C(O)(c1ccccc1)c1ccccc1 | inactive: -2.67%
26 | CP(=O)(Nc1ccccc1F)Oc1ccccc1 (configuration not stated) | inactive: 12.6%
27 | CC(C)c1ccc(OP(C)(=O)Nc2ccc(SC(F)(F)F)cc2)cc1 (configuration not stated) | inactive: -10.9%
28 | CC(C)(C)C(=O)NC(Sc1ccccc1)C(Cl)(Cl)Cl (configuration not stated) | inactive: -7.19%
29 | CCOc1ccc(C2=NCC(CBr)S2)cc1 (configuration not stated) | inactive: 1.01%
30 | O=P1(Nc2nc3ccc(Cl)cc3s2)COc2ccccc2O1 (configuration not stated) | inactive: -3.17%
31 | Cc1ccccc1NP(C)(=O)Nc1ccccc1C | inactive: -2.87%
32 | CP(=O)(Nc1ccc2c(c1)OCCO2)Oc1ccccc1 (configuration not stated) | inactive: -5.8%
33 | CCOP(C)(=S)SCC(=O)NC(C)(CC)C(=O)O (configuration not stated) | inactive: -4%
34 | c1nnnn1CCn1cnnn1 | inactive: 0.658%
35 | CP(=O)(Nc1ccc(SC(F)(F)F)cc1)Oc1ccc(F)cc1 (configuration not stated) | inactive: -9.11%
36 | O=P(Nc1nccs1)(c1ccccc1)c1ccccc1 | inactive: -4.54%
37 | CC(C)C(=O)NC(Sc1ccccc1)C(Cl)(Cl)Cl (configuration not stated) | inactive: 3.46%
38 | Nc1ccc([As](=O)(O)c2ccc([N+](=O)[O-])cc2)cc1 | inactive: -3.11%
39 | C(Cc1nn[nH]n1)Cc1nn[nH]n1 | inactive: -4.64%
40 | O=C(OC1CN2CCC1CC2)c1cccc(Cl)c1 (configuration not stated) | inactive: -2.68%
41 | O=[N+]([O-])c1ncn(CCn2cnc([N+](=O)[O-])n2)n1 | inactive: 11.5%
42 | CC(=O)NC(SC(=S)N(C)C)C(Cl)(Cl)Cl (configuration not stated) | inactive: -11.2%

Row | Structure (SMILES) | inhibition
43 | O=[N+]([O-])c1ccc(OP2(=O)COCCO2)cc1 (configuration not stated) | inactive: -1.4%
44 | O=[N+]([O-])c1ccc(O)c(/C=N/Nc2ccc([N+](=O)[O-])cc2[N+](=O)[O-])c1 | inactive: 18.6%
45 | O=[N+]([O-])c1cc([N+](=O)[O-])c(NCC2CCS(=O)(=O)C2)c([N+](=O)[O-])c1 (configuration not stated) | inactive: 2.79%
46 | Cc1cc(-c2cccc3ccccc23)c(C)cn1.O=[N+]([O-])c1cc([N+](=O)[O-])c(O)c([N+](=O)[O-])c1 | inactive: 1.42%
47 | O=[As](O)(c1ccccc1)c1ccc(O)cc1 | inactive: 7.48%
48 | C[C@H]1OP(=O)(Oc2ccccc2)[C@H](O)[C@H](O)[C@H]1N=[N+]=[N-] (some centres not stated) | inactive: -0.0799%
49 | O=P(Nc1nc2ccccc2s1)(c1ccccc1)c1ccccc1 | inactive: -2.42%
50 | CN(C)CCOC(=O)C(O)(c1ccccc1)C1CCCCC1 (configuration not stated) | inactive: 3.53%
51 | COc1ccc(NP(C)(=O)Oc2ccccc2OC)cc1 (configuration not stated) | inactive: 10.7%
52 | COc1ccc(OP(C)(=O)Nc2cccc(Br)c2)cc1 (configuration not stated) | inactive: 0.585%
53 | CN(C)C1(CNC(=O)c2ccc(Cl)c(S(N)(=O)=O)c2)CCCCC1 | inactive: 0.731%
54 | O=P(Nc1ccccn1)(c1ccc(Br)cc1)c1ccc(Br)cc1 | inactive: 4.19%
55 | O=[As](O)(c1cccs1)c1cccs1 | inactive: -3.22%
56 | Cc1ccc(OCC(=O)OC2CN3CCC2CC3)cc1 (configuration not stated) | inactive: 5.8%
57 | CP(=O)(Nc1ccc(SC(F)(F)F)cc1)Oc1ccccc1 (configuration not stated) | inactive: -10.3%
58 | Nc1cccc([As](=O)(O)c2ccccc2)c1 | inactive: 3.05%
59 | CCCOc1ccc(NP(C)(=O)Oc2ccc(Cl)cc2)cc1 (configuration not stated) | inactive: -0.979%
60 | O=P1(Nc2ncccn2)COc2ccccc2OC1 | inactive: -2.71%
61 | CN1CCCCC1COC(=O)C1(O)c2ccccc2CCc2ccccc21 (configuration not stated) | inactive: 5.75%
62 | COc1ccccc1OP(C)(=O)Nc1c(C)cccc1C (configuration not stated) | inactive: 1.02%
